# According to patent US20080269348A1, “Novel Arylbicyclo[3.1.0]Hexylamines And Methods And Compositions For Their Preparation And Use” (priority 2006, published 2008):
# By UniProt entry, the sequences of proteins in these tests, tags left out. Residues count along the entry.
# UniProt P31652, whole entry, looked up: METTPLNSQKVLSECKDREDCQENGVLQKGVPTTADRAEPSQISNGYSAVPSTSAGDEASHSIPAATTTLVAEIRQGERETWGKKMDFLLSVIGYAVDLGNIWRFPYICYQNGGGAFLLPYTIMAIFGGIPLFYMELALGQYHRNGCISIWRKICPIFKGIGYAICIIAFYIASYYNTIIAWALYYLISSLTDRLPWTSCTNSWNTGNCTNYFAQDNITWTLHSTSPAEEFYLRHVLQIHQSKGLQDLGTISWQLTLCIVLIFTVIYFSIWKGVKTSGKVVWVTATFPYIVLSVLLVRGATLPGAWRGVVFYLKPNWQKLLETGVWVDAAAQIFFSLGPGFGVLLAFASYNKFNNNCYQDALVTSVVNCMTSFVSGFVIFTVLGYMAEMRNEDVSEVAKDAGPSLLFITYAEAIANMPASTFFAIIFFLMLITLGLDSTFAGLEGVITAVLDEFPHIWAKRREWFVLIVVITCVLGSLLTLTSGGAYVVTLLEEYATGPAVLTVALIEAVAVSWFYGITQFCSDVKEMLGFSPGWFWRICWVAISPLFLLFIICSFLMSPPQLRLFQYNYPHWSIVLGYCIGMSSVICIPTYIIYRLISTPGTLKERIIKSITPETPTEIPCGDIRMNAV
# UniProt Q63380, 1-617: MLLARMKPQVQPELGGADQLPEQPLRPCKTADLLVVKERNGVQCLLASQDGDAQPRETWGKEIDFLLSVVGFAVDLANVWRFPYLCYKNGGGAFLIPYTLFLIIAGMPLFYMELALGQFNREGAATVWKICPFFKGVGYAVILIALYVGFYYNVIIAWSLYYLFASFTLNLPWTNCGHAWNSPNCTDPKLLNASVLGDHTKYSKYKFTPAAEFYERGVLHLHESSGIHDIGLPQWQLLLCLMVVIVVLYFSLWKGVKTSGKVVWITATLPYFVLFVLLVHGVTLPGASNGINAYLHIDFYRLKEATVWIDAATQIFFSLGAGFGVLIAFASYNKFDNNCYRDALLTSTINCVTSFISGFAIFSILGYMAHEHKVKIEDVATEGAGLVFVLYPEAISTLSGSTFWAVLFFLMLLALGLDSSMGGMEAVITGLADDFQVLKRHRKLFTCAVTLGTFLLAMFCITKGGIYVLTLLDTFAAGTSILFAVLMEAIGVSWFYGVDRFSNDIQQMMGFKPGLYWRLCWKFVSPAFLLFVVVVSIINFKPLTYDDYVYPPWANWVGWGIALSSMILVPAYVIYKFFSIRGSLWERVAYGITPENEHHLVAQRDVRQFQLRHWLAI
# How the values were obtained:
# serotonin (5-HT) uptake = serotonin (5-HT) uptake (Rattus norvegicus, UniProt P31652); conditions: read-out: Uptake IC50 (nM) 5-HT; whole brain synaptosomes
# [1] = target: norepinephrine (NE) uptake (Rattus norvegicus, UniProt Q63380); assay: Inhibition of [3H]NE uptake in rat hypothalamus synaptosomes; format: biochemical; conditions: read-out: Uptake IC50 (nM) NE
smiles,measurement,setting,value
NC1C[C@H]2C[C@]2(c2ccc(Cl)c(Cl)c2)C1 (some centres unmarked),IC50,serotonin (5-HT) uptake,172 nM
same,IC50,[1],454 nM
